{"source": "patent US7247704", "about": "(ARRIVA PHARMACEUTICALS, dated 2007)", "binders": {"B1": {"name": "SLAPI (SLPI/AAT fusion protein) (other)", "chain": "MSGKSFKAGVCPPKKSAQCLRYKKPECQSDWQCPGKKRCCPDTCGIKCLDPVDTPNPTRRKPGKCPVTYGQCLMLNPPNFCEMDGQCKRDLKCCMGMCGKSCVSPVKAMEDPQGDAAQKTDTSHHDQDHPTFNKITPNLAEFAFSLYRQLAHQSNSTNIFFSPVSIATAFAMLSLGTKADTHDEILEGLNFNLTEIPEAQIHEGFQELLRTLNQPDSQLQLTTGNGLFLSEGLKLVDKFLEDVKKLYHSEAFTVNFGDTEEAKKQINDYVEKGTQGKIVDLVKELDRDTVFALVNYIFFKGKWERPFEVKDTEEEDFHVDQVTTVKVPMMKRLGMFNIQHCKKLSSWVLLMKYLGNATAIFFLPDEGKLQHLENELTHDIITKFLENEDRRSASLHLPKLSITGTYDLKSVLGQLGITKVFSNGADLSGVTEEAPLKLSKAVHKAVLTIDEKGTEAAGAMFLEAIPMSIPPEVKFNKPFVFLMIEQNTKSPLFMGKVVNPTQK"}}, "target": "T1, Porcine Pancreatic Elastase (porcine, UniProt P00772 27-266)", "T1 sequence (looked up)": "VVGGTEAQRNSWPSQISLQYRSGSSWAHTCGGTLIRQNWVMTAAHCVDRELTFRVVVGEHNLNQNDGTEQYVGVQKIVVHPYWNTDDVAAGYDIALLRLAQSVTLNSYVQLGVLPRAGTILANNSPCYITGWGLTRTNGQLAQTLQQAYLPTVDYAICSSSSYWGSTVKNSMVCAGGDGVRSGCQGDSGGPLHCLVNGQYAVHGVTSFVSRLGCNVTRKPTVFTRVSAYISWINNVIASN", "assay": "cell-based or functional assay", "data": [{"binder": "B1", "values": [{"measurement": "specific anti-elastase activity, fold over AAT (Difco medium)", "value": 2, "unit": "fold"}, {"measurement": "specific anti-elastase activity, fold over AAT (Red Star medium)", "value": 1.9, "unit": "fold"}]}]}
